Test results from paper PMC11905624 (BMC Biology, 2025).

By UniProt entry, the sequences of proteins in these tests, tags left out.
UniProt P30411, whole entry: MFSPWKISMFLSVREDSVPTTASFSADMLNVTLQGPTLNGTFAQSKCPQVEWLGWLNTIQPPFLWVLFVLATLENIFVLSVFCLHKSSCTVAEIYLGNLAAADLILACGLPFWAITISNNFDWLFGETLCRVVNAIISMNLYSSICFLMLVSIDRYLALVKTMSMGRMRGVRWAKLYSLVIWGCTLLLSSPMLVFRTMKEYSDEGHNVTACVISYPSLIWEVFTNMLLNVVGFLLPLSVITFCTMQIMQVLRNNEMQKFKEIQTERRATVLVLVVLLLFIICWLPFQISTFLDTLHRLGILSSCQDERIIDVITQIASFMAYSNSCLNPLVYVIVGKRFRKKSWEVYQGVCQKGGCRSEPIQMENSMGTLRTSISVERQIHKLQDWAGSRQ

Molecular target: T1, B2 receptor (Homo sapiens, UniProt P30411)
T1 construct: endogenous in cells; host or cells: HaCaT
Assay: Intracellular calcium flux in HaCaT cells
Assay type: cell-based
Conditions: 3 µM HOE140, 100 nM BK/cBK, n = 2
Description: HaCaT cells were seeded onto 96-well plates and, upon reaching full confluence, were starved for 3 h (medium without FBS). […] After 1.5 h in 37 °C, fluorescence intensity (485/525 nm) was recorded continuously for 5 min using FlexStation 3 (Molecular Devices). […] FBS (3%) served as positive control. Results were calculated as area under the curves of RFU fold change from the signal recorded at baseline and adjusted to % of maximum response (FBS) curve. Non-linear regression analyses were performed to generate dose–response curves and calculate EC50 values.

- Effect of B2 inhibitor on calcium influx induced by BK/cBK: blocked the intracellular calcium influx
Substance: HOE140 [reference compound]
